Results from patent US20240360082A1, “SUBSTITUTED PYRIDONE COMPOUNDS USEFUL TO TREAT ORTH[…]” (priority 2021, published 2024).
Read-outs that look alike come from different tables or passages of the source.

Test system: influenza virus (multiple flu strains)
Experiment: organism not typed
Details: MDCK
[1] = read-out: NA Alaska H3N2, NA assay, Alaska H3N2 strain
[2] = read-out: NA CAL H1N1, NA assay, CAL H1N1 strain
[3] = read-out: NA Alaska H3N2 IC50, NA assay, Alaska H3N2 strain
[4] = read-out: NA CAL H1N1 IC50, NA assay, CAL H1N1 strain

## NC(=O)c1cc(-c2ccc(OCc3ccn4nnnc4c3)cc2)c(C(F)(F)F)[nH]c1=O [Example 90, 2-oxo-5-(4-(tetrazolo[1,5-a]pyridin-7-ylmethoxy)phenyl)-6-(trifluoromethyl)-1,2-dihydropyridine-3-carboxamide]
[1]
  IC50: 1 to 5 µM
[2]
  IC50: 10 to 25 µM

## COCCOc1ccc(-c2cc(C(N)=O)c(=O)[nH]c2C(F)(F)F)cc1 [Example 254, 5-(4-(2-methoxyethoxy)phenyl)-2-oxo-6-(trifluoromethyl)-1,2-dihydropyridine-3-carboxamide]
[3]
  IC50: 0.1 to 1 µM
[4]
  IC50: 1 to 5 µM

## Cc1cc(COc2ccc(-c3cc(C(N)=O)c(=O)[nH]c3C(F)(F)F)cc2)no1 [Example 224, 5-(4-((5-methylisoxazol-3-yl)methoxy)phenyl)-2-oxo-6-(trifluoromethyl)-1,2-dihydropyridine-3-carboxamide]
[3]
  IC50: 0.1 to 1 µM
[4]
  IC50: 5 to 10 µM

## NC(=O)c1cc(-c2ccc(OCc3ccc(F)c([N+](=O)[O-])c3)cc2)c(C(F)(F)F)[nH]c1=O [Example 93, 5-(4-((4-fluoro-3-nitrobenzyl)oxy)phenyl)-2-oxo-6-(trifluoromethyl)-1,2-dihydropyridine-3-carboxamide]
[1]
  IC50: 0.1 to 1 µM
[2]
  IC50: 0.1 to 1 µM

## NC(=O)c1cc(-c2ccc(OCC3COCC(=O)N3)cc2)c(C(F)(F)F)[nH]c1=O (centres unmarked) [Example 250, 2-oxo-5-(4-((5-oxomorpholin-3-yl)methoxy)phenyl)-6-(trifluoromethyl)-1,2-dihydropyridine-3-carboxamide]
[3]
  IC50: 1 to 5 µM
[4]
  IC50: 25 to 50 µM

## NC(=O)c1cc(-c2ccc(OCc3cncc(C4(O)COC4)c3)cc2)c(C(F)(F)F)[nH]c1=O [Example 181, 5-(4-((5-(3-hydroxyoxetan-3-yl)pyridin-3-yl)methoxy)phenyl)-2-oxo-6-(trifluoromethyl)-1,2-dihydropyridine-3-carboxamide]
[1]
  IC50: 5 to 10 µM
[2]
  IC50: 10 to 25 µM

## NC(=O)c1cc(-c2ccc(OCc3nccs3)cc2)c(C(F)(F)F)[nH]c1=O [Example 143, 2-oxo-5-(4-(thiazol-2-ylmethoxy)phenyl)-6-(trifluoromethyl)-1,2-dihydropyridine-3-carboxamide]
[1]
  IC50: 0.1 to 1 µM
[2]
  IC50: 1 to 5 µM

## Cc1cc(-c2cc(C(N)=O)c(=O)[nH]c2C(F)(F)F)ccc1CN1CCOCC1 [Example 43, 5-(3-methyl-4-(morpholinomethyl)phenyl)-2-oxo-6-(trifluoromethyl)-1,2-dihydropyridine-3-carboxamide]
[1]
  IC50: 1 to 5 µM
[2]
  IC50: 10 to 25 µM

## NC(=O)c1cc(-c2ccc(OCC(=O)Nc3cccnc3)cc2)c(C(F)(F)F)[nH]c1=O [Example 201, 2-oxo-5-(4-(2-oxo-2-(pyridin-3-ylamino)ethoxy)phenyl)-6-(trifluoromethyl)-1,2-dihydropyridine-3-carboxamide]
[1]
  IC50: 1 to 5 µM
[2]
  IC50: 10 to 25 µM

## N#Cc1cccc(COc2ccc(-c3cc(C(N)=O)c(=O)[nH]c3C(F)(F)F)cc2)c1 [Example 78, 5-(4-((3-cyanobenzyl)oxy)phenyl)-2-oxo-6-(trifluoromethyl)-1,2-dihydropyridine-3-carboxamide]
[1]
  IC50: 0.1 to 1 µM
[2]
  IC50: 0.01 to 0.1 µM

## NC(=O)c1cc(-c2ccc(OCc3cnc(NC4CCCC4)nc3)cc2)c(C(F)(F)F)[nH]c1=O [Example 159, 5-(4-((2-(cyclopentylamino)pyrimidin-5-yl)methoxy)phenyl)-2-oxo-6-(trifluoromethyl)-1,2-dihydropyridine-3-carboxamide]
[1]
  IC50: 0.01 to 0.1 µM
[2]
  IC50: 0.1 to 1 µM

## NC(=O)c1cc(-c2ccc(OCc3cnc(OCC4CCO4)nc3)cc2)c(C(F)(F)F)[nH]c1=O (centres unmarked) [Example 156, 5-(4-((2-(oxetan-2-ylmethoxy)pyrimidin-5-yl)methoxy)phenyl)-2-oxo-6-(trifluoromethyl)-1,2-dihydropyridine-3-carboxamide]
[1]
  IC50: 1 to 5 µM
[2]
  IC50: 25 to 50 µM

## Cc1cc(-c2cc(C(N)=O)c(=O)[nH]c2C(F)(F)F)ccc1OCC1COCCO1 (centres unmarked) [Example 242, 5-(4-((1,4-dioxan-2-yl)methoxy)-3-methylphenyl)-2-oxo-6-(trifluoromethyl)-1,2-dihydropyridine-3-carboxamide]
[3]
  IC50: 0.1 to 1 µM
[4]
  IC50: 1 to 5 µM

## NC(=O)c1cc(-c2ccc(OCc3cccc([N+](=O)[O-])c3)cc2)c(C(F)(F)F)[nH]c1=O [Example 54, 5-(4-((3-nitrobenzyl)oxy)phenyl)-2-oxo-6-(trifluoromethyl)-1,2-dihydropyridine-3-carboxamide]
[1]
  IC50: 0.1 to 1 µM
[2]
  IC50: 0.1 to 1 µM

## NC(=O)c1cc(-c2ccc(OCC3CNC(=O)C3)cc2)c(C(F)(F)F)[nH]c1=O (centres unmarked) [Example 88, 2-oxo-5-(4-((5-oxopyrrolidin-3-yl)methoxy)phenyl)-6-(trifluoromethyl)-1,2-dihydropyridine-3-carboxamide]
[1]
  IC50: 5 to 10 µM

## C[C@@]12O[C@H](COc3ccc(-c4cc(C(N)=O)c(=O)[nH]c4C(F)(F)F)cc3)CO[C@@H]1C2(F)F [Example 395, 55-(4-(((1R,3S,6S)-7,7-difluoro-1-methyl-2,5-dioxabicyclo[4.1.0]heptan-3-yl)methoxy)phenyl)-2-oxo-6-(trifluoromethyl)-1,2-dihydropyridine-3-carboxamide]
[3]
  IC50: 0.01 to 0.1 µM
[4]
  IC50: 0.1 to 1 µM

## NC(=O)c1cc(-c2ccc(OCC3COCCN3)cc2)c(C(F)(F)F)[nH]c1=O (centres unmarked) [Example 246, 5-(4-(morpholin-3-ylmethoxy)phenyl)-2-oxo-6-(trifluoromethyl)-1,2-dihydropyridine-3-carboxamide]
[3]
  IC50: 10 to 25 µM

## NC(=O)c1cc(-c2ccc(OCc3cncc(N4CCOCC4)c3)cc2)c(C(F)(F)F)[nH]c1=O [Example 179, 5-(4-((5-morpholinopyridin-3-yl)methoxy)phenyl)-2-oxo-6-(trifluoromethyl)-1,2-dihydropyridine-3-carboxamide]
[1]
  IC50: 0.1 to 1 µM
[2]
  IC50: 1 to 5 µM

## CCCNc1cccc(COc2ccc(-c3cc(C(N)=O)c(=O)[nH]c3C(F)(F)F)cc2)c1 [Example 66, 2-oxo-5-(4-((3-(propylamino)benzyl)oxy)phenyl)-6-(trifluoromethyl)-1,2-dihydropyridine-3-carboxamide]
[1]
  IC50: 0.1 to 1 µM
[2]
  IC50: 0.1 to 1 µM

## CS(=O)(=O)CCOc1ccc(-c2cc(C(N)=O)c(=O)[nH]c2C(F)(F)F)cc1 [Example 256, 5-(4-(2-(methylsulfonyl)ethoxy)phenyl)-2-oxo-6-(trifluoromethyl)-1,2-dihydropyridine-3-carboxamide]
[3]
  IC50: 0.1 to 1 µM
[4]
  IC50: 5 to 10 µM

## NC(=O)c1cc(-c2ccc(OCc3ncccn3)cc2)c(C(F)(F)F)[nH]c1=O [Example 121, 2-oxo-5-(4-(pyrimidin-2-ylmethoxy)phenyl)-6-(trifluoromethyl)-1,2-dihydropyridine-3-carboxamide]
[1]
  IC50: 0.1 to 1 µM
[2]
  IC50: 1 to 5 µM

## CCCNc1cncc(COc2ccc(-c3cc(C(N)=O)c(=O)[nH]c3C(F)(F)F)cc2)c1 [Example 120, 2-oxo-5-(4-((5-(propylamino)pyridin-3-yl)methoxy)phenyl)-6-(trifluoromethyl)-1,2-dihydropyridine-3-carboxamide]
[1]
  IC50: 0.01 to 0.1 µM
[2]
  IC50: 0.1 to 1 µM

## NC(=O)c1cc(-c2ccc(CN3CCOCC34CC4)cc2)c(C(F)(F)F)[nH]c1=O [Example 30, 5-(4-((7-oxa-4-azaspiro[2.5]octan-4-yl)methyl)phenyl)-2-oxo-6-(trifluoromethyl)-1,2-dihydropyridine-3-carboxamide]
[1]
  IC50: 0.1 to 1 µM
[2]
  IC50: 0.1 to 1 µM

## NC(=O)c1cc(-c2ccc(OCc3ccc4ccncc4c3)cc2)c(C(F)(F)F)[nH]c1=O [Example 137, 5-(4-(isoquinolin-7-ylmethoxy)phenyl)-2-oxo-6-(trifluoromethyl)-1,2-dihydropyridine-3-carboxamide]
[1]
  IC50: 1 to 5 µM
[2]
  IC50: 25 to 50 µM

## NC(=O)c1cc(-c2ccc(OCc3cnc(NCC4CC4)nc3)cc2)c(C(F)(F)F)[nH]c1=O [Example 161]
[1]
  IC50: 0.01 to 0.1 µM
[2]
  IC50: 0.1 to 1 µM

## CC1(C)CN(Cc2ccc(-c3cc(C(N)=O)c(=O)[nH]c3C(F)(F)F)cc2)CCO1 [Example 39, 5-(4-((2,2-dimethylmorpholino)methyl)phenyl)-2-oxo-6-(trifluoromethyl)-1,2-dihydropyridine-3-carboxamide]
[1]
  IC50: 0.1 to 1 µM
[2]
  IC50: 0.1 to 1 µM

## C[C@]12O[C@H](COc3ccc(-c4cc(C(N)=O)c(=O)[nH]c4C(F)(F)F)cc3)CO[C@H]1C2(F)F [Example 394, 5-(4-(((1S,3S,6R)-7,7-difluoro-1-methyl-2,5-dioxabicyclo[4.1.0]heptan-3-yl)methoxy)phenyl)-2-oxo-6-(trifluoromethyl)-1,2-dihydropyridine-3-carboxamide]
[3]
  IC50: 0.01 to 0.1 µM
[4]
  IC50: 0.01 to 0.1 µM

## NC(=O)c1cc(-c2ccc(OCc3cnc(OCCO)nc3)cc2)c(C(F)(F)F)[nH]c1=O [Example 152, 5-(4-((2-(2-hydroxyethoxy)pyrimidin-5-yl)methoxy)phenyl)-2-oxo-6-(trifluoromethyl)-1,2-dihydropyridine-3-carboxamide]
[1]
  IC50: 5 to 10 µM
[2]
  IC50: 10 to 25 µM

## NC(=O)c1cc(-c2ccc(OCC(O)CN3CCOCC3)cc2)c(C(F)(F)F)[nH]c1=O (centres unmarked) [Example 260, 5-(4-(2-hydroxy-3-morpholinopropoxy)phenyl)-2-oxo-6-(trifluoromethyl)-1,2-dihydropyridine-3-carboxamide]
[3]
  IC50: 1 to 5 µM
[4]
  IC50: 25 to 50 µM

## NC(=O)c1cc(-c2ccc(CC3(O)CCOCC3)cc2)c(C(F)(F)F)[nH]c1=O [Example 50, 5-(4-((4-hydroxytetrahydro-2H-pyran-4-yl)methyl)phenyl)-2-oxo-6-(trifluoromethyl)-1,2-dihydropyridine-3-carboxamide]
[1]
  IC50: 0.1 to 1 µM
[2]
  IC50: 1 to 5 µM

## NC(=O)c1cc(-c2ccc(OCc3cccnc3Cl)cc2)c(C(F)(F)F)[nH]c1=O [Example 119, 5-(4-((2-chloropyridin-3-yl)methoxy)phenyl)-2-oxo-6-(trifluoromethyl)-1,2-dihydropyridine-3-carboxamide]
[1]
  IC50: 0.1 to 1 µM
[2]
  IC50: 0.1 to 1 µM

## COc1ncccc1COc1ccc(-c2cc(C(N)=O)c(=O)[nH]c2C(F)(F)F)cc1 [Example 136, 5-(4-((2-methoxypyridin-3-yl)methoxy)phenyl)-2-oxo-6-(trifluoromethyl)-1,2-dihydropyridine-3-carboxamide]
[1]
  IC50: 1 to 5 µM
[2]
  IC50: 1 to 5 µM
